Biological target: Recombinant human Syk (amino acids 342-635) (Homo sapiens (Human), UniProt P43405)
Experiment: Syk Kinase Test (Kinase Glo luminescence)
Type: biochemical
Conditions: read-out: SYK-inhibiton IC50-value
Procedure: The output file of the reader is a csv file that contains the well number and measured relative light units (RLU). For data evaluation and calculation, the measurement of the negative control was set as 100% ctrl and the measurement of the positive control was set as 0% ctrl. Based on this values the % value for the measurement of each substance concentration was calculated using an Assay Explorer software (Accelrys). Normally, the % ctrl values calculated are between 0% and 100% values but may also occur outside these limits in individual cases based on variability or compound characteristics. The IC50 values were calculated from the % ctrl values using Assay Explorer software. Calculation: [y=(a−d)/(1+(x/c)^b)+d] a=low value, d=high value; x=conc M; c=IC50 M; b=hill; y=% ctrl.

IC50: 732 nM
Substance: (4R)-4-[(1R)-1-[6-[1-(Difluoromethyl)imidazol-4-yl]-2-methyl-pyrazolo[4,3-c]pyridin-4-yl]oxyethyl]pyrrolidin-2-one [Example 83]

From patent US10947243B2, “Heteroaryl SYK inhibitors” (Boehringer Ingelheim International GmbH, priority 2014, dated 2021)
